Earlier results, collected in patent US5562894A, “Amino-acyl-type and catecholamine-type contrast agents for MRI” (Regents of the University of California, priority 1993, dated 1996).

Details: in vivo; cited from earlier work

Substance: albumin-(Gd-DTPA)n: contrast agent which remains largely intravascular
- distribution (in words): remains largely intravascular
